Data taken from patent US6825223B2, “Anilide compounds and pharmaceutical compositions comprising them” (Kowa Company, Ltd., priority 1996, dated 2004).

Molecular target: T1, ACAT in J774 cell (Mus musculus, UniProt Q61263)
T1 construct: J774 cell was cultured with DMEM culturing solution; endogenous in cells; host or cells: J774 cells
T1 sequence (Q61263 1-540): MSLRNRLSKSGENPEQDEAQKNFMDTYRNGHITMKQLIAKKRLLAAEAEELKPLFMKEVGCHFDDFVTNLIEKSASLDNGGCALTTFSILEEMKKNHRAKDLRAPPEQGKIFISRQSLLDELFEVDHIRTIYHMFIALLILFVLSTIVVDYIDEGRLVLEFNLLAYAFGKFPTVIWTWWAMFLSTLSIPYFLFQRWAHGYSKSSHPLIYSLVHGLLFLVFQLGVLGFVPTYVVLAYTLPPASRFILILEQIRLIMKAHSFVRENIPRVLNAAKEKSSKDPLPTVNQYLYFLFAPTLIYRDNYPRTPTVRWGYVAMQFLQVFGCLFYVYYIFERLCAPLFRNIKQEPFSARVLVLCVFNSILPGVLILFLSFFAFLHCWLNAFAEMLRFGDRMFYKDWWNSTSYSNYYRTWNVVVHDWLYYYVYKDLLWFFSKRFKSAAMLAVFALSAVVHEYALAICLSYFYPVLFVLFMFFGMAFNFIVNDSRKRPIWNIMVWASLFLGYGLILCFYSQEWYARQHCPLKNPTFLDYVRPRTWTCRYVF
Assay: ACAT inhibiting activity in J774 cell (anti-foaming activity)
Assay type: cell-based
Settings: ratio of the two cell IC50 values

CCCCCCCCCCCCCCSCC(=O)Nc1c(C(C)C)cccc1C(C)C [Control (2), N-(2,6-diisopropylphenyl) -2-(tetradecylthio)acetamide, reference compound]
IC50 (HepG 2)/IC50 (J 774): 9.33
